From PubChem BioAssay AID651550 (National Center for Advancing Translational Sciences (NCATS), 2012)
The entries are a selection whose mix differs from that of the whole data set. The source made the active and inactive calls. No stated cut-off is given here; in the data, active means activity change below about -80%; inconclusive means mostly about -51% to -80%; inactive means weaker than that.

These molecules were tested against RAC-alpha serine/threonine-protein kinase (Homo sapiens) (UniProt P31749) (assay: HTS Assay for Inhibitors of Akt Phophorylation: Primary Screen). Conditions: Neuro2A IGF-stimulated pAkt S473 HTRF, 20 min; at 50 µM; active compounds read low.
Description: The serine/threonine protein kinase Akt (protein kinase B) regulates various cellular processes, including cell survival, growth, proliferation, migration and differentiation. It has been well established that Akt is activated through two essential steps involving membrane translocation and phosphorylation. Cytosolic Akt is recruited to the plasma membrane via the interaction between the PH domain and membrane PIP3 produced by phosphoinositide-3 kinase (PI3K) upon growth factor receptor stimulation. The membrane-Akt interaction results in conformational changes of Akt, enabling its activation through phosphorylation at T308 in the kinase domain and at S473 in the C-terminal hydrophobic motif by PDK1 and mTOR-rictor complex (mTORC2), respectively. […] These findings indicate that S473 phosphorylation, as an important modulator of Akt activation, may be a valuable drug target for cell growth, survival, proliferation and differentiation. These inhibitors also may have significant therapeutic potential with fewer side effects, especially for the conditions involving hyperactive Akt signaling, such as cancer and Alzheimer's disease.
To this end, a miniaturized assay was developed to be screened against the Molecular Libraries Small Molecule Repository (MLSMR).
NIH Chemical Genomics Center [NCGC]
NIH Molecular Libraries Probe Centers Network [MLPCN]
Assay Submitter (PI): Hee-Yong Kim, National Institute on Alcohol Abuse and Alcoholism
3 uL of Neuro2A cell suspension in DMEM containing 0.5% FBS and […] antibiotics mix was plated in a white solid bottom tissue culture-treated 1536-well plate (Greiner Bio-One, Monroe, NC) at 4,500 cells per well and incubated overnight at 37 deg C. 23 nL/well of compound solutions in DMSO was added with Pintool transfer (Kalypsis, San Diego, CA) at single […] final concentration. Then, the cells were stimulated with 1.5 uL of IGF (6 nM final concentration) and incubated at 37 deg C for 20 min. The reaction was terminated by the addition of 1.5 uL blocking reagent mixed with lysis buffer (1:25 correspondingly) provided with HTRF(R) Phospho Akt (Ser473) kit (Cisbio US, Bedford, MA), with following incubation for 50 min at ambient temperature. The detection HTRF conjugates from the kit were prepared according to the protocol, pre-mixed 1:1 prior to dispensing, and 2 uL/well was added with BioRAPTR FRD dispenser (Beckman Coulter). The assay plates were incubated for 24 hours at ambient temperature, and the HTRF fluorescence was measured using Envision plate reader (PerkinElmer) with excitation at 330nm, emission at 615nm (Eu(3)-Cryptate donor signal) and 665nm (d2 acceptor signal). The ratio of […] was calculated for each well.
On the % scale 0 is the no-effect control and ±100 the full control effect.

Row | SMILES | activity change
1 | CP(=S)(Nn1cnnc1)Oc1ccccc1 (centres undefined) | inactive: -8.31%
2 | COc1ccccc1OP(C)(=O)Nc1ccc(C)cc1 (centres undefined) | inactive: -0.208%
3 | CCOP(C)(=S)SCC(=O)NC(C)(CC)C(=O)O (centres undefined) | inactive: -9.25%
4 | Cc1ccccc1NP(C)(=O)Nc1ccccc1C | inactive: -9.37%
5 | CP(=O)(Nc1ccc2c(c1)OCCO2)Oc1ccccc1 (centres undefined) | inactive: 7.18%
6 | CN(C)CCOC(=O)C(O)(c1ccccc1)C1CCCCC1 (centres undefined) | inactive: -0.956%
7 | COc1ccc(OP(C)(=O)Nc2cccc(Br)c2)cc1 (centres undefined) | inactive: 15.1%
8 | CCN(CC)CCCOC(=O)C(O)(c1ccccc1)C1CCCCC1 (centres undefined) | inactive: -17%
9 | COc1ccccc1OP(C)(=O)Nc1ccc(C)cc1C (centres undefined) | inactive: -2.33%
10 | Cc1c(NP(C)(=O)Oc2ccc(C(C)C)cc2)c(=O)n(-c2ccccc2)n1C (centres undefined) | inactive: -0.296%
11 | COc1ccccc1OP(C)(=O)Nc1ccc(C)c(C)c1 (centres undefined) | inactive: 5.71%
12 | CP(=O)(Oc1ccccc1)N1CCOC1=O (centres undefined) | inactive: 6.49%
13 | CCN(CC)CC(O)COC(=O)C(O)(c1ccccc1)C1CCCCC1 (centres undefined) | inactive: -4.56%
14 | CC(C)(C)c1ccc(OP(C)(=O)O)cc1 | inactive: 6.5%
